Only a part is listed here, and it is no random draw. Measured potencies and affinities stand elsewhere. Activity calls are given as the source filed them. Cut-off read from the data, not from the text of the source: active = inhibition above about 55%; inactive = the rest.
Biological target: Dual specificity protein phosphatase 3 (Homo sapiens) (UniProt P51452)
Test: VHR1 phosphatase inhibitors, biochemical (AID 1878)
Conditions: recombinant VHR phosphatase, fluorogenic substrate; at 13.3 µM; active compounds read high

Protein sequences, listed by entry. Tags and fused reporters are not part of them. Lines headed by an entry give the natural chain unless they say otherwise; changes in a name come on top.
UniProt P51452: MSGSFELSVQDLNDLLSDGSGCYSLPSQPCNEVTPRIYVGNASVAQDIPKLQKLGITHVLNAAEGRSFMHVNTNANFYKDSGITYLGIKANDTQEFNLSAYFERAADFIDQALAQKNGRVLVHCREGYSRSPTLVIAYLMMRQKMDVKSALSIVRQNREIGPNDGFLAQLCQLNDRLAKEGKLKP

Question: With `Nc1cccc2c([As](=O)(O)O)cccc12` as the compound, how does the inhibition read?
Answer: inactive: -6.8%
